# Literature values in US20070148100A1, “Nanoparticulate aripiprazole formulations” (priority 2005, published 2007).
# Conditions: in vivo
compound,measurement,value
"O=C1CCc2ccc(OCCCCN3CCN(c4cccc(Cl)c4Cl)CC3)cc2N1 [Aripiprazole, 7-[4-[4-(2,3-dichlorophenyl)-1-piperazinyl]butoxy]-3,4-dihydrocarbostyril]",time to achieve steady state plasma concentrations,about 14 days
